# Measured affinities in a library of Ab-95 light chain variants

Values reported by Engelhart et al. 2022, doi:10.1038/s41597-022-01779-4 (FLAb copy).

The target is the same throughout: PDVDLGDISGINAS, from the HR2 region of SARS-CoV-2 spike.

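Phage display of a naive human antibody library on the peptide gave the parent. AAYL52 was designed without a model: most single CDR substitutions and a random sample of double and triple ones. The assay is AlphaSeq: two haploid yeast populations carry antibody and antigen on their surface. Binding brings cells together so that they mate, and sequencing counts the barcode pairs among the diploids. Scores were corrected for input abundance and mapped to Kd with protein pairs of known affinity run in the same pool. Mating was done three times.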

Each scFv is VH, the linker GGGGSGGGGSGGGGS, VL, as in the parent Ab-95, and differs from it in the CDRs of the light chain only.
VH: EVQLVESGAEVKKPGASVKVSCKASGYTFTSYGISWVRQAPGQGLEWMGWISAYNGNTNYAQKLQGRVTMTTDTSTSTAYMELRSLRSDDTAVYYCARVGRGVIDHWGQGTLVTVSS
VL: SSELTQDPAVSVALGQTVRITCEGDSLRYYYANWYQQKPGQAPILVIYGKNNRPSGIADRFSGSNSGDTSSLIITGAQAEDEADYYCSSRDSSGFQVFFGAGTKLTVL

Each variant's VL is given in full.
Numbers give log10(Kd / nM), so 0 is 1 nM and 3 is 1 µM. Smaller is tighter.
Averages over replicates are reported, and they cover detected replicates only.
Where no diploid with the target was found in that replicate, the entry reads "ND": below detection, most likely a poor binder, though not proof of it.
For reference, the parent read 2.31 as the reference entry and 2.25 as a member of this library.
Background: pairings of library AAYL52 with three empty control strains gave a value in 28% of cases (median 3.91, 5th percentile 2.90). Values in that range, when seen in few replicates, are hard to tell from nonspecific mating. Also given: how often the same scFv was detected with the empty control strains, with their mean in brackets.

| VL | log10 Kd, replicates | log10 Kd (nM), mean | control signals |
|---|---|---|---|
| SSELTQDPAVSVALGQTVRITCEGDSLRYYYANWYQQKPGQAPILVIYGKSNRPSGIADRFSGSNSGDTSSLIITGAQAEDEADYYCSSRDSSGPGVFFGAGTKLTVL | 3.63 3.04 2.77 | 3.15 | 3/9 (4.52) |
| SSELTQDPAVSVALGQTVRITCEGDSLRYYYANWYQQKPGQAPILVIYGNAIRPSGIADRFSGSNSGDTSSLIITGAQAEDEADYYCSSRDSSGFQVFFGAGTKLTVL | 2.30 2.06 1.62 | 1.99 | 5/9 (3.84) |
| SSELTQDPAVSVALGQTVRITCEGDSLRTYKANWYQQKPGQAPILVIYGKNNRESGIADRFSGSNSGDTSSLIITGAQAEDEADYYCSSRDSSGFQVFFGAGTKLTVL | 2.79 3.04 3.06 | 2.96 | 2/9 (3.99) |
| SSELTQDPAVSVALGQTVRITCEGDSLRYYYSNWYQQKPGQAPILVIYGKNNRPSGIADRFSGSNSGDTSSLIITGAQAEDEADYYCSSHDVSGFQVFFGAGTKLTVL | 3.60 4.61 4.42 | 4.21 | 5/9 (3.94) |
| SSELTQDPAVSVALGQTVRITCEGDSHRYYYANWYQQKPGQAPILVIYGKLNRPSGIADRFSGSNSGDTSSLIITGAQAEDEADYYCSSRDSSGFQVFFGAGTKLTVL | ND 3.75 ND | 3.75 | 2/9 (4.00) |
| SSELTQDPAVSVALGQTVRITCCGESLRYYYANWYQQKPGQAPILVIYGKNNRPSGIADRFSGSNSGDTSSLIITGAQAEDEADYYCSSRDSSKFQVFFGAGTKLTVL | 4.02 4.86 ND | 4.44 | 3/9 (3.94) |
| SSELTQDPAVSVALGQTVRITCEGDSLRYYYANWYQQKPGQAPILVIYGKPNRPSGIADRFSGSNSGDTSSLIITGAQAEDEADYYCSVRDRSGFQVFFGAGTKLTVL | ND ND ND | ND | 1/9 (3.37) |
| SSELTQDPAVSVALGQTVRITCEGDSLRYYYQFWYQQKPGQAPILVIYGKNNRPSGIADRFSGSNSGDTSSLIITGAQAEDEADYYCSSYDSSGFQVFFGAGTKLTVL | ND ND ND | ND | 1/9 (3.94) |
| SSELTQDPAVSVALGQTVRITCEGDSLRYYRANWYQQKPGQAPILVIYFKNNRPSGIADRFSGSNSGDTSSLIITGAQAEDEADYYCSSRDSSGWQVFFGAGTKLTVL | ND ND ND | ND | 3/9 (4.51) |
| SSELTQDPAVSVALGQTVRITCEGDSLRYYLACWYQQKPGQAPILVIYGKNNRPWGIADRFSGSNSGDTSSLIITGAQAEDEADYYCSSRDSSGFQVFFGAGTKLTVL | 4.57 5.02 ND | 4.80 | 5/9 (3.84) |
| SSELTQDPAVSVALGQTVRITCEGQSLRYYYANWYQQKPGQAPILVIYGKNNRPSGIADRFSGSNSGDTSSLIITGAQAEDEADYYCSSRDFSGFVVFFGAGTKLTVL | ND 4.77 ND | 4.77 | 4/9 (4.16) |
| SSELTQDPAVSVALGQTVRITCEPDSLRYYYANWYQQKPGQAPILVIYGKNNRQSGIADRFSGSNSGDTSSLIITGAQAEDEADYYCSSRDSSGFQPFFGAGTKLTVL | 5.26 ND ND | 5.26 | 2/9 (3.02) |
| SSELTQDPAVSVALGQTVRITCEGDSLRYVYANWYQQKPGQAPILVIYGKNNRPEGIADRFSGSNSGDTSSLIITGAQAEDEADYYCSSRPSSGFQVFFGAGTKLTVL | 2.36 3.14 2.65 | 2.72 | 0/9 |
| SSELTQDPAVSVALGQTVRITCEGESLRYYYKNWYQQKPGQAPILVIYGKMNRPSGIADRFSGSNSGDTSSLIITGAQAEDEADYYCSSRDSSGFQVFFGAGTKLTVL | 3.56 ND ND | 3.56 | 3/9 (3.42) |
| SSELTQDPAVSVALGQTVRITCEGDSCRYYYANWYQQKPGQAPILVIYGKNNTPSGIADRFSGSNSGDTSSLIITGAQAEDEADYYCSSRDSSGFQYFFGAGTKLTVL | 4.93 ND ND | 4.93 | 3/9 (3.47) |
| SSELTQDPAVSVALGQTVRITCEGDSLRYEYANWYQQKPGQAPILVIYGKNNRPSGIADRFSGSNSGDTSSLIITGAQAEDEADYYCMSRDSSGQQVFFGAGTKLTVL | 1.87 1.51 1.36 | 1.58 | 2/9 (4.94) |
| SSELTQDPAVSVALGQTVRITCEGDSLWYYYANWYQQKPGQAPILVIYGKNNRPSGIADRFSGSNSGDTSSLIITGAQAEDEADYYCRHRDSSGFQVFFGAGTKLTVL | 3.61 ND 3.86 | 3.73 | 4/9 (3.67) |
| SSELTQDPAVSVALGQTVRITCMGDSLRYIYWNWYQQKPGQAPILVIYGKNNRPSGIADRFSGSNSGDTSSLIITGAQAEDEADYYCSSRDSSGFQVFFGAGTKLTVL | 3.62 3.36 3.53 | 3.50 | 5/9 (3.91) |
| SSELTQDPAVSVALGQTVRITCEGDSLITYYANWYQQKPGQAPILVIYGKNNRPSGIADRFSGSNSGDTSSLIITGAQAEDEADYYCTSRDSSGFQVFFGAGTKLTVL | 4.16 4.17 ND | 4.16 | 3/9 (3.62) |
| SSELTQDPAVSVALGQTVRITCEGQALRYYYAKWYQQKPGQAPILVIYGKNNRPSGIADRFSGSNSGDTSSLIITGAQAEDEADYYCSSRDSSGFQVFFGAGTKLTVL | ND 4.66 ND | 4.66 | 2/9 (3.93) |

The 3 strongest on average among those seen in every replicate, once more:

| VL | log10 Kd, replicates | log10 Kd (nM), mean | control signals |
|---|---|---|---|
| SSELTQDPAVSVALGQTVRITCEGDSLRYEYANWYQQKPGQAPILVIYGKNNRPSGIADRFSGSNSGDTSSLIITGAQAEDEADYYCMSRDSSGQQVFFGAGTKLTVL | 1.87 1.51 1.36 | 1.58 | 2/9 (4.94) |
| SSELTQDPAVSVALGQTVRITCEGDSLRYYYANWYQQKPGQAPILVIYGNAIRPSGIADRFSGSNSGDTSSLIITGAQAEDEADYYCSSRDSSGFQVFFGAGTKLTVL | 2.30 2.06 1.62 | 1.99 | 5/9 (3.84) |
| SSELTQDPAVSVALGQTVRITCEGDSLRYVYANWYQQKPGQAPILVIYGKNNRPEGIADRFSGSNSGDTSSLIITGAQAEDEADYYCSSRPSSGFQVFFGAGTKLTVL | 2.36 3.14 2.65 | 2.72 | 0/9 |